# Values quoted from earlier work as cited in US20210244743A1 (priority 2020, published 2021).
# System: basal and insulin-activated 2-deoxyglucose uptake in adipocytes
# Settings: read-out: IC50, inhibition of basal and insulin-activated 2-deoxyglucose uptake; cited from earlier work
compound,measurement,value
"Nc1ccc(C(=O)Nc2cccc(-c3nc(N4CCOCC4)c4oc5ncccc5c4n3)c2)cn1 [YM-201636, 6-amino-N-(3-(4-morpholinopyrido[3′,2′:4,5]furo[3,2-d]pyrimidin-2-yl)phenyl)nicotinamide]",IC50,54 nM
